# Measured values reported in ChEMBL document CHEMBL3244256 (J Med Chem, 1979).
# What was measured:
# Mus musculus [1] = assay: Toxicity po dosed whole-body gamma-irradiated mouse compound administered 30 mins prior irradiation; conditions: in vivo, 0.5 h
# Mus musculus [2] = assay: Toxicity ip dosed whole-body gamma-irradiated mouse compound administered 15 mins prior irradiation; conditions: in vivo, 0.25 h
# Mus musculus [3] = assay: Protective index, ratio of LD50 for mouse to ED50 for antiradiation activity in ip dosed whole-body gamma-irradiated mouse
# Mus musculus [4] = assay: Toxicity ip dosed whole-body gamma-irradiated mouse compound administered 30 mins prior irradiation; conditions: in vivo, 0.5 h
# Mus musculus [5] = assay: Toxicity po dosed whole-body gamma-irradiated mouse compound administered 30 to 60 mins prior irradiation; conditions: in vivo
SMILES,LD50 (Mus musculus [1]) [mg/kg],LD50 (Mus musculus [2]) [mg/kg],PI (Mus musculus [3]),LD50 (Mus musculus [4]) [mg/kg],LD50 (Mus musculus [5]) [mg/kg]
NCCCC[C@H](N)CSP(=O)(O)O,750,325,20,,
NCCC[C@H](N)CSP(=O)(O)O,> 1000,> 800,> 22,,
NCC[C@H](N)CSP(=O)(O)O,> 1500,> 1250,> 23,,
NCC(N)CSP(=O)(O)O (stereo unspecified),,,> 5.9,> 900,1600
NCCCCC(N)CSP(=O)(O)O (stereo unspecified),900,450,29,,
NCCCCCC(N)CSP(=O)(O)O (stereo unspecified),> 1000,500,8,,
NCCCC(N)CSP(=O)(O)O (stereo unspecified),> 1500,> 1000,> 15,,
